Read-outs that look alike come from different tables or passages of the source.
What was measured:
[1] = HPLC pharmacokinetics of secondary metabolites in serum/plasma, liver and urine of mice after oral Sechium H387 07 extract; format: in vivo, female CD-1 mice (Mus musculus L.)
Method: Pharmacokinetic parameters were evaluated in female CD-1 mice (Mus musculus L.) provided by the vivarium of the Faculty of Higher Studies, Zaragoza, National Autonomous University of Mexico. All mice were clinically healthy, approximately 12 weeks old, and weighed ~30 g. […] Female mice were selected as the available cohort from the institutional vivarium, and their use allowed us to establish baseline pharmacokinetic parameters under standardized conditions. […] Animals were randomly assigned to treatment groups. Treatment allocation and sample collection were blinded. All experimental procedures were approved by the Research Ethics Committee of the Faculty of Higher Studies, Zaragoza (FESZ/CEI/1/1/5/27/23).
For the HPLC quantification of metabolites, concentrations were expressed as µg/mL for serum and urine and as µg/mg of tissue for liver samples. The results were translated into graphical form using the identified metabolites. The Cmax and time to reach maximum concentration (Tmax) of the secondary metabolites were obtained directly from the concentration–time curve.
The area under the plasma concentration–time curve from time zero to the last measurable concentration ( AUC0−t ) was calculated using the linear trapezoidal rule, according to the following formula: AUC0−t=∑i=1n−1Ci+Ci+1/2×ti+1−ti where Ci and Ci+1 are the plasma concentrations at consecutive time points ti and ti+1 . The total area under the curve ( AUC0−∞ ) was obtained as the sum of AUC0−t and the extrapolated area from the last measurable concentration to infinity, calculated as:(1) AUC0−∞=AUC0−t+Clast/kel where Clast is the final observed concentration and kel is the terminal final elimination constant estimated from the slope of the log-linear portion of the concentration–time curve.

[2] = cited from earlier work; for Cmax: rats, oral CuB from Trichosanthes cucumerina
[3] = cited from earlier work

cucurbitacin B
Cmax ([1]; plasma, oral Sechium H387 07 extract 125 mg/kg, listed as CuB): 37560 ng/mL
AUC0−t ([1]; plasma, oral extract 125 mg/kg): 1.87 ± 0.13 μg⋅h/mL
Clearance ([1]; plasma, oral extract 125 mg/kg): 11.7 mL/min/kg
T1/2 ([1]; plasma, oral extract 125 mg/kg): 7.2 ± 1.1 h
Vd ([1]; plasma, oral extract 125 mg/kg): 5.0 L/kg
Tmax ([1]; plasma, oral extract 125 mg/kg, Table S1, unit not given): 1 ± 0.2
serum concentration, change with dose and time ([1]; serum, oral extract 8, 125, 250 mg/kg, 1, 6, 24, 48 h): After an initial decline at 6 h, a secondary rise was observed at 24–48 h
CuB concentration recorded ([2]; Trichosanthes cucumerina extracts): up to 0.031 µg/mL
Cmax ([2]; 2 mg/kg): 9.7 ng/mL
Cmax ([2]; 4 mg/kg): 31.2 ng/mL
Cmax ([3]; 8 mg/kg, ref other studies): 0.0341 ng/mL
Tmax ([3]; 8 mg/kg, ref other studies): up to 3 h
concentration in systemic circulation ([3]; after a dose of 1 mg/kg): 34 ng/mL

Source: PMC12525650, “Pharmacokinetic Profile of Extracts from the Chayote (Sechium edule) H387 07 Hybrid and Phytochemical Characterization of Its Segregant H387 M16 for Potential Therapeutic Applications” (Molecules, 2025)
